Measured values published in ChEMBL document CHEMBL3259632, “Discovery of dual orexin receptor antagonists with rat sleep efficacy enabled by expansion of the acetonitrile-assisted/diphosgene-mediated 2,4-dichloropyrimidine synthesis” (2014).

By UniProt entry, the sequences of proteins in these tests, tags left out.
UniProt O43614, whole entry, looked up: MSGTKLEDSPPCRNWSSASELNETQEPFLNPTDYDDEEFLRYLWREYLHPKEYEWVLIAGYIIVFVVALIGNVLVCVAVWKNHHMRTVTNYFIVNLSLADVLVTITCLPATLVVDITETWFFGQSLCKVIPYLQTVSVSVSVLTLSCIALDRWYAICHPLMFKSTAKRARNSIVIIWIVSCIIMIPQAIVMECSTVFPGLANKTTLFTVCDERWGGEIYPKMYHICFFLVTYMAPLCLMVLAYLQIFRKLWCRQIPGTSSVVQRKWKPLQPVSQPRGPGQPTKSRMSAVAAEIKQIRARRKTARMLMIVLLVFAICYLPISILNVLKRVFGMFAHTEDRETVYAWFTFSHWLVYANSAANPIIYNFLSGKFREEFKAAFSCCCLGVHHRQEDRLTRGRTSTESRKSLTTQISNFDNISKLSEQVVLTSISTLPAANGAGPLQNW
UniProt O43613, whole entry, looked up: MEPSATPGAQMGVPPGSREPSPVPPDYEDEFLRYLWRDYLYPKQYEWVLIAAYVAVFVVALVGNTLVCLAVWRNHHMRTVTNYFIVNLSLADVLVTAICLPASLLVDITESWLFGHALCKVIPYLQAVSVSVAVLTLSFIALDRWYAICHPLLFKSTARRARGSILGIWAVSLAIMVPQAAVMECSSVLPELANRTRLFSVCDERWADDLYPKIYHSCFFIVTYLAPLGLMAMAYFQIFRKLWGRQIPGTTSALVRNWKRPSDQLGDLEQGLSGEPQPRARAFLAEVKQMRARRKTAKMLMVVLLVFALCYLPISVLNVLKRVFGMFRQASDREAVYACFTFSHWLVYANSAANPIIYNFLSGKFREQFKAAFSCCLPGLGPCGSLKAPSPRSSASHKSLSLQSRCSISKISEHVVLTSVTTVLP

Experiments:
[1] = molecular target: T1, Orexin receptor type 2 (Homo sapiens, UniProt O43614); experiment: Displacement of [3H]radioligand from human orexin-2 receptor expressed in CHO cells after 3 hrs by scintillation counting analysis
[2] = molecular target: T1, Orexin receptor type 2; experiment: Antagonist activity at human orexin-2 receptor expressed in CHO cells assessed as inhibition of Ala-6, 12-induced responses by FLIPR assay
[3] = molecular target: T2, Orexin/Hypocretin receptor type 1 (Homo sapiens, UniProt O43613); experiment: Displacement of [3H]radioligand from human orexin-1 receptor expressed in CHO cells after 3 hrs by scintillation counting analysis
[4] = molecular target: T2, Orexin/Hypocretin receptor type 1; experiment: Antagonist activity at human orexin-1 receptor expressed in CHO cells assessed as inhibition of Ala-6, 12-induced responses by FLIPR assay
[5] = tested on: Rattus norvegicus; experiment: In vivo occupancy of orexin-2 receptor in transgenic rat at 2 uM plasma concentration
[6] = tested on: Rattus norvegicus; experiment: In vivo sleep efficacy in Sprague-Dawley rat assessed as light sleep at 25 mg/kg, po monitored for 2 hrs
[7] = tested on: Rattus norvegicus; experiment: Oral bioavailability in rat at 10 mg/kg administered in dosed as the hydrochloride salt in 100% PEG200; conditions: in vivo
[8] = tested on: Rattus norvegicus; experiment: In vivo sleep efficacy in Sprague-Dawley rat assessed as active wake sleep at 25 mg/kg, po monitored for 2 hrs
[9] = tested on: Rattus norvegicus; experiment: In vivo sleep efficacy in Sprague-Dawley rat assessed as slow wave sleep at 25 mg/kg, po monitored for 2 hrs
[10] = tested on: Rattus norvegicus; experiment: Tmax in rat at 10 mg/kg, po administered in dosed as the hydrochloride salt in 100% PEG200; conditions: in vivo
[11] = tested on: Rattus norvegicus; experiment: AUC in rat at 10 mg/kg, po administered in dosed as the hydrochloride salt in 100% PEG200; conditions: in vivo, Plasma
[12] = tested on: Rattus norvegicus; experiment: In vivo sleep efficacy in Sprague-Dawley rat assessed as REM sleep at 25 mg/kg, po monitored for 2 hrs
[13] = tested on: Rattus norvegicus; experiment: In vivo sleep efficacy in Sprague-Dawley rat assessed as slow wave sleep at 30 mg/kg, po monitored for 2 hrs
[14] = tested on: Liver microsome; experiment: Bioactivation in human liver microsomes assessed as GSH adducts formation relative to standard
[15] = tested on: Rattus norvegicus; experiment: In vivo sleep efficacy in Sprague-Dawley rat assessed as active wake sleep at 30 mg/kg, po monitored for 2 hrs
[16] = tested on: Rattus norvegicus; experiment: In vivo sleep efficacy in Sprague-Dawley rat assessed as light sleep at 30 mg/kg, po monitored for 2 hrs
[17] = tested on: Rattus norvegicus; experiment: In vivo sleep efficacy in Sprague-Dawley rat assessed as REM sleep at 30 mg/kg, po monitored for 2 hrs
[18] = tested on: Liver microsome; experiment: Bioactivation in rat liver microsomes assessed as GSH adducts formation relative to standard
[19] = Lipophilicity, log D of the compound by HPLC method
[20] = Plasma protein binding in rat
[21] = Plasma protein binding in human
[22] = tested on: Rattus norvegicus; experiment: Volume of distribution at steady state in rat at 2 mg/kg, iv; conditions: in vivo
[23] = tested on: Canis familiaris; experiment: Half life in dog at 0.5 mg/kg, iv; conditions: in vivo
[24] = tested on: Rattus norvegicus; experiment: Half life in rat at 2 mg/kg, iv; conditions: in vivo
[25] = tested on: Rattus norvegicus; experiment: Cmax in rat at 10 mg/kg, po administered in dosed as the hydrochloride salt in 100% PEG200; conditions: in vivo
[26] = Plasma protein binding in dog
[27] = tested on: Canis familiaris; experiment: Volume of distribution at steady state in dog at 0.5 mg/kg, iv; conditions: in vivo

Row | Structure (SMILES) | Ki [1] | IC50 [2] | Ki [3] | IC50 [4] | further results
1 | Cc1ccc(-n2nccn2)c(C(=O)N2CCN(c3nc(N)c4ccsc4n3)CC[C@H]2C)c1 | 0.7 nM | 34 nM | 0.5 nM | 26 nM | 
2 | C[C@@H]1CCN(c2nc(N)c3ccsc3n2)CCN1C(=O)c1ccccc1-n1nccn1 | 9.2 nM | 35 nM | 0.9 nM | 15 nM | 
3 | Cc1ccc(-n2nccn2)c(C(=O)N2CCN(c3nc(N)c4c(C)coc4n3)CC[C@H]2C)c1 | 5 nM | 160 nM | 1.8 nM | 195 nM | 
4 | Cc1csc2nc(N3CC[C@@H](C)N(C(=O)c4ccccc4-n4nccn4)CC3)nc(N)c12.Cl |  |  |  |  | Activity [5]: 88%; Time [6]: 12 min; bioavailability [7]: 17%; Time [8]: 53 min; Time [9]: 46 min; Tmax [10]: 18 min; AUC [11]: 2.8 µM·h; Time [12]: 9 min
5 | C[C@@H]1CCN(c2ncc3cc(F)ccc3n2)CCN1C(=O)c1ccccc1-n1nccn1 |  |  |  |  | Time [13]: 41 min; Drug metabolism [14]: metabolite_detected; Time [15]: 58 min; Time [16]: 14 min; Time [17]: 7 min; Drug metabolism [18]: metabolite_detected
6 | Cc1ccc(-n2nccn2)c(C(=O)N2CCN(c3ncc4c(C)nn(C)c4n3)CC[C@H]2C)c1 | 3.7 nM | 85 nM | 0.8 nM | 119 nM | 
7 | Cc1nn(C)c2nc(N3CC[C@@H](C)N(C(=O)c4ccccc4-n4nccn4)CC3)ncc12 | 92 nM | 280 nM | 4.5 nM | 200 nM | 
8 | Cc1ccc(-n2nccn2)c(C(=O)N2CCN(c3nc(N)c4cc(C)sc4n3)CC[C@H]2C)c1 | 0.4 nM | 35 nM | 0.4 nM | 47 nM | 
9 | Cc1ccc(-n2nccn2)c(C(=O)N2CCN(c3ncc4c(C)csc4n3)CC[C@H]2C)c1 | 0.2 nM | 35 nM | 0.3 nM | 37 nM | logD [19]: 3.8; PPB [20]: 99.3%; PPB [21]: 99.4%
10 | Cc1cc2c(N)nc(N3CC[C@@H](C)N(C(=O)c4ccccc4-n4nccn4)CC3)nc2s1 | 1.5 nM | 34 nM | 0.7 nM | 31 nM | 
11 | Cc1coc2nc(N3CC[C@@H](C)N(C(=O)c4ccccc4-n4nccn4)CC3)nc(N)c12 | 25 nM | 210 nM | 1.8 nM | 195 nM | 
12 | Cc1ccc(-n2nccn2)c(C(=O)N2CCN(c3ncc4cnn(C)c4n3)CC[C@H]2C)c1 | 49 nM | 70 nM | 2 nM | 92 nM | 
13 | Cc1ccc(-n2nccn2)c(C(=O)N2CCN(c3ncc4c(C)c(C)oc4n3)CC[C@H]2C)c1 | 0.5 nM | 42 nM | 0.5 nM | 67 nM | 
14 | Cc1ccc(-n2nccn2)c(C(=O)N2CCN(c3ncc4c(C)coc4n3)CC[C@H]2C)c1 | 0.6 nM | 34 nM | 0.2 nM | 45 nM | 
15 | Cc1csc2nc(N3CC[C@@H](C)N(C(=O)c4ccccc4-n4nccn4)CC3)nc(N)c12 | 1.2 nM | 29 nM | 0.3 nM | 28 nM | logD [19]: 2; Vdss [22]: 0.3 L/kg; Drug metabolism [14]: metabolite_detected; PPB [20]: 98.9%; t1/2 [23]: 48 min; t1/2 [24]: 12 min; PPB [21]: 98.5%; Cmax [25]: 3.8 µM; PPB [26]: 97.8%; Vdss [27]: 0.7 L/kg; Drug metabolism [18]: metabolite_detected
16 | Cc1ccc(-n2nccn2)c(C(=O)N2CCN(c3nc(N)c4c(C)csc4n3)CC[C@H]2C)c1 | 0.3 nM | 43 nM | 0.3 nM | 53 nM | 
